Biological target: Alpha-2A adrenergic receptor (Homo sapiens, UniProt P08913)
Test: In vitro binding affinity to the human alpha-2A adrenergic receptor

Sequences of proteins named here, by UniProt entry; tags and fusion partners are left off.
UniProt P08913, whole entry: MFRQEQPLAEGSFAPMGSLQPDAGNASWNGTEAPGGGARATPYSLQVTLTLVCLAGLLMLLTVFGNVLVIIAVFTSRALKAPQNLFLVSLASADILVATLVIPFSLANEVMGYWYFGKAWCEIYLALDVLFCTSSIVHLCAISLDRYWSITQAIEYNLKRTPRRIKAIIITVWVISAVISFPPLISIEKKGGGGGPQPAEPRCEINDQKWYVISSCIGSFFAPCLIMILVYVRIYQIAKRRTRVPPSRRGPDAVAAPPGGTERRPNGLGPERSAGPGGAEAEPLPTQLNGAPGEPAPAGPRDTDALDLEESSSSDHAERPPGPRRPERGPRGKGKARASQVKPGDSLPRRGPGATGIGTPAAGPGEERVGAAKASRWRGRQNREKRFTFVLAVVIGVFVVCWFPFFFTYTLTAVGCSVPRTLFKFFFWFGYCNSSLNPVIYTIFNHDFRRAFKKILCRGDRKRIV

With `COc1cc2c(cc1OC)C1=NO[C@@H](CN3CCN(C/C=C/c4ccccc4)CC3)[C@@H]1CO2` the Ki was 8.8 nM.
With `COc1cc2c(cc1OC)C1=NO[C@@H](CN3CCN(C/C(C)=C/c4ccccc4)CC3)[C@@H]1CO2` the Ki was 0.8 nM.

From ChEMBL document CHEMBL1146766, “Synthesis of 3a,4-dihydro-3H-[1]benzopyrano[4,3-c]isoxazoles, displaying combined 5-HT uptake inhibiting and alpha2-adrenoceptor antagonistic activities. Part 2: Further exploration on the cinnamyl moiety” (Bioorg Med Chem Lett, 2004)
